# Ab-14 heavy chain CDR variants: yeast mating affinities

Data: MIT Lincoln Laboratory AlphaSeq set, Li et al. 2023, doi:10.1038/s41467-023-39022-2, as distributed in FLAb.

Target peptide (SARS-CoV-2 spike, HR2 region): PDVDLGDISGINAS

Parent: Ab-14, a human scFv built as VH, three GGGGS repeats, VL. Only the CDRs of the heavy chain vary.
VH: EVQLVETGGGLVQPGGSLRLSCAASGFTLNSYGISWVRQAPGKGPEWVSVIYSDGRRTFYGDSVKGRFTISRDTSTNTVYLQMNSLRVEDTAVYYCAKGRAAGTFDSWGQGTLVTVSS
VL: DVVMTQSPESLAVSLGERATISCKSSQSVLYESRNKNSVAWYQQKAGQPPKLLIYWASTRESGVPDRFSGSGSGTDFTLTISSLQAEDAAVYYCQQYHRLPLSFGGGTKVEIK

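These sequences belong to a second round, designed from the earlier measurements on random variants of the parent. Group labels follow the data file (Ctrl: baseline library sampled from a position-specific scoring matrix, with some repeated check sequences; Rand: our label for a block that the file lists under HC and that is probably the random mutants of the ten best first-round binders; En: ensemble of fine-tuned language models; GP: Gaussian process model; GPLM: also part of the Gaussian process libraries; HC: hill climbing; Gen: genetic algorithm; Gibbs: Gibbs sampling; a sequence that several methods proposed may carry one label only). In AlphaSeq, yeast of one mating type display the scFv and yeast of the other type display the target. The frequency of each diploid, read from paired DNA barcodes, reflects how well the two displayed proteins bind. Each replicate has its own calibration line, from reference interactions of the BCL2 family. Mating was done six times.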

Variants are written as CDR1, CDR2 and CDR3 of the heavy chain (limits as in the source). Parent: GFTLNSYGIS, VIYSDGRRTFYGDSVK, GRAAGTFDS.
The read-out is the apparent dissociation constant on a log10 scale (nM): the lower, the stronger.
The mean shown is taken over the replicates in which the pair was detected.
"not detected" marks a missing value. The strain was present, yet no cells mated with the target were sequenced in any replicate, which points to weak or no binding.

CDR-H1 | CDR-H2 | CDR-H3 | group | mean, log10 nM | replicates with signal
GFTLNEYGIS | VIYSDGRRTFYGDSVK | GRTAGTFDL | GPLM_Gen | 0.53 | 6 of 6
GFDLDEYGIS | VIYADGQRTAYSDSVK | GETAGTFDV | En_Gen | -0.41 | 6 of 6
GFHLNSYGIS | VIYSDGRRTFYGDSVK | GQTAGTFDR | GP_Gibbs | 2.30 | 6 of 6
GFGLDEYGIS | VIYADGRRTFYADSVK | GENAGTFDL | En_HC | -0.70 | 6 of 6
GFTLNSYGIS | VIYSDGRRTFYTDSVK | GSEAGTFDS | GP_HC | 0.25 | 6 of 6
GFDLNEYGIS | VIYADGRRTFYVDSVK | GEQAGTFDV | En_HC | -0.04 | 6 of 6
GFDLNSYGIS | VIYSDGRRTFYRDSVK | GREAGTFDS | GP_Gibbs | -0.16 | 6 of 6
GFTLNEYGIS | VIYSDGRRTFYGDRVK | GRTAGTFVS | GP_Gibbs | 2.29 | 2 of 6
GFDLNEYGIS | VIYADGRRTAYEDSVK | GEAAGTFDQ | En_HC | -0.51 | 6 of 6
GFDLDEYGIS | VIYADGSRTAYADDVK | GEVAGTFDV | En_Gen | 0.10 | 5 of 6
GFTLSSYGIS | VIYSDGRRTFYSDSVK | DRIKGTFDS | Ctrl | 1.74 | 4 of 6
GFDLNSYGIS | VIYSDGRRTFYADQVK | GNAAGTFDS | GP_Gen | 0.66 | 6 of 6
GFSLNSYGIS | VIYSDGRRTFYADSVK | GKVAGTFDS | GPLM_Gen | 0.34 | 6 of 6
GFTLNEYGIS | VIYSDGRRTFYGDSVK | GKAAGTFDT | GPLM_Gen | 0.50 | 5 of 6
GFSLNSYGIS | VIYSDGRRTFYADSVK | GRSAGTFDK | GP_Gibbs | 1.50 | 6 of 6
GVNLDEYGIS | VIYADGQRTAYDDPVK | GGQGGTVMV | En_Gibbs | not detected | 0 of 6
GFSLNSYGIS | VIYSDGRRTFYCDSVK | GQAAGTFDS | GPLM_Gen | 1.65 | 1 of 6
GFNLDEVGIS | VIYADGSRVAYVDNVK | GTVDAVGFV | En_Gibbs | not detected | 0 of 6
GFNLNSYGIS | VIYSDGRRTFYGDSVK | GEAAGTFDS | Ctrl | 0.64 | 6 of 6
GFDLNEYGIS | VIYADGRRTFYADSVK | GNQAGTFIV | En_HC | 1.13 | 6 of 6
GLTLNSYGIS | VIYSDGRRTFYGDSVK | GRAAQTFDS | Ctrl | not detected | 0 of 6
GFTLNSYGRS | VIYSDGRRTFYKDSVK | GRAAGTFDS | Ctrl | not detected | 0 of 6
FFTDNQYGIS | VIYSDGRRTFYSDSVK | GRAAGFFDS | Rand | not detected | 0 of 6
GFFLNEYGIS | VIYSDGRRTFYGPSVK | GRAAVTFDQ | Rand | 1.92 | 1 of 6
DFTLNSYGIS | VIYSDGRRTFYGDSYK | GDAAGTFDS | Ctrl | not detected | 0 of 6
GFMLNEYGIS | VIYADGRRTEHKDSVK | GRAAGTFDS | Ctrl | 2.32 | 1 of 6
GFDLNSYGIS | VIYSDGRRTFYGDSVK | GRQAGTFDV | GP_Gen | 0.48 | 6 of 6
GFGLNEYGIS | VIYSDGRRTFYGDSVK | GREAGTFDT | GPLM_Gibbs | -0.61 | 6 of 6
GFSLNSYGIS | VIYSDGRRTFYVDDVK | GEAAGTFDS | GPLM_Gen | 1.12 | 6 of 6
GFTLNSYGIS | VIYSDGRRTFYDDDVK | GQIAGTFDS | GP_HC | 0.32 | 4 of 6
GFTLNSYGIS | VIYSDGRRTFYGDSVK | GAAAGTFDL | Ctrl | not detected | 0 of 6
GFDLNEYGIS | VIYADGRRTFYSDSVK | GNVAGTFDD | En_HC | 0.00 | 6 of 6
GFDLDEYGIS | VIYADGRRTAYADDVK | GENAGTFDQ | En_Gen | -0.30 | 6 of 6
GFDLNEYGIS | VIYADGRRTFYADSVK | GNQAGTFIF | En_HC | 1.16 | 2 of 6
GFNLNSYGIS | VIYSDGRRTFYHDSVK | GQTAGTFDS | GP_Gen | 0.23 | 6 of 6
GFPLDSYGIS | VIYSDGRRTFYSDSVE | GNLAGTFDS | Ctrl | 0.43 | 6 of 6
GFDLNSYGIS | VIYSDGRRTFYGDDVK | GNAAGTFDS | GP_Gen | 0.43 | 6 of 6
GDGLNSYGIS | VIYSDGERTFYGDSVK | GSAAGTFDS | Ctrl | 1.62 | 1 of 6
GFDLDEYGIS | VIYADGQRTAYADSVK | GANAGTFDV | En_Gen | -0.46 | 6 of 6
GFDLNEYGIS | VIYADGMRTFYTDSVK | GELAGTFDS | En_HC | -0.57 | 6 of 6
GFSLNSYGIS | VIYSDGRRTFYGDSVK | GSEAGTFDS | GPLM_Gen | 0.07 | 5 of 6
GFTLNSYGIS | VIYSDGRRTAYEDSVK | GRAGGTFVS | Ctrl | not detected | 0 of 6
GFTLNSYGIS | VIYSDGRRTAYGDSVK | GQLAGTFDS | GP_HC | 1.83 | 6 of 6
GFDLNEYGIS | VIYADGKRTAYADSVK | GQVAGTFDQ | En_Gen | -0.59 | 6 of 6
GFSLNSYGIS | VIYADGRRTFYGDSVK | GNAAGTFDD | GP_Gibbs | 0.04 | 6 of 6
GFTLNEYGIS | VIYSDGSRTFYTDSVK | GRNAGTFDS | GPLM_HC | -0.50 | 6 of 6
GFDLNEYGIS | VIYADGRRTAYSDSVK | GSNAGTFDV | En_Gen | -0.40 | 6 of 6
GETLNSYGVS | VIYSDGRRTFYGDSVK | GRAAGTFDS | Ctrl | not detected | 0 of 6
GFDLNEYGIS | VIYADGMRTAYSDSVK | GENAGTFVM | En_Gen | 2.68 | 6 of 6
GFSLDEYGIS | VIYADGRRTFYQDDVK | GNVAGTFDT | En_HC | -0.75 | 6 of 6
GFTLNEYGIS | VIYSDGRRTFYGDSVK | GRAGGTFRS | GP_HC | not detected | 0 of 6
GFDLNEYGIS | VIYADGQRTAYSDSVK | GSNAGTFDV | En_Gen | -0.62 | 6 of 6
GFKLNEYGIS | VIYSDGRRTWYIDSVK | GRAAGTFDS | GP_HC | 0.92 | 6 of 6
GFYLNSYGIS | VIYSDGRRTFYQDSVK | GQLAGTFDS | GP_HC | not detected | 0 of 6
GFKLNSYGIS | VIYSDGRRTFYGDSVK | GRTAGTFDS | Ctrl+GPLM_Gen | 1.16 | 4 of 12
GFTLQSYGIS | VIYADGRRTFYDDSVK | GRAAGTFDS | Ctrl | 0.11 | 5 of 6
GFTLNSYGIS | VIYSDGRRTFYDDSVK | GQVAGTFDT | GP_HC | not detected | 0 of 6

Again, the first 9 entries without any signal:

CDR-H1 | CDR-H2 | CDR-H3 | group | mean, log10 nM | replicates with signal
GVNLDEYGIS | VIYADGQRTAYDDPVK | GGQGGTVMV | En_Gibbs | not detected | 0 of 6
GFNLDEVGIS | VIYADGSRVAYVDNVK | GTVDAVGFV | En_Gibbs | not detected | 0 of 6
GLTLNSYGIS | VIYSDGRRTFYGDSVK | GRAAQTFDS | Ctrl | not detected | 0 of 6
GFTLNSYGRS | VIYSDGRRTFYKDSVK | GRAAGTFDS | Ctrl | not detected | 0 of 6
FFTDNQYGIS | VIYSDGRRTFYSDSVK | GRAAGFFDS | Rand | not detected | 0 of 6
DFTLNSYGIS | VIYSDGRRTFYGDSYK | GDAAGTFDS | Ctrl | not detected | 0 of 6
GFTLNSYGIS | VIYSDGRRTFYGDSVK | GAAAGTFDL | Ctrl | not detected | 0 of 6
GFTLNSYGIS | VIYSDGRRTAYEDSVK | GRAGGTFVS | Ctrl | not detected | 0 of 6
GETLNSYGVS | VIYSDGRRTFYGDSVK | GRAAGTFDS | Ctrl | not detected | 0 of 6

The authors averaged sequences with at least three values out of six and counted those with two or fewer as poor binders.
Some sequences occur more than once in the pool; their replicates are pooled.
The range of this assay differs from that of the first round, and the authors advise against merging the two.
Nonspecific signal, from three strains lacking the peptide, appeared in 1% of pairings of all heavy chain designs, centred on 2.08 (5% of these signals below 0.84); values are not corrected for it.
The parent sequence was in this pool as ten entries: three were never detected, three once, and four in most replicates, with averages from 0.34 to 2.37.